“And” between values parts separate entries of the source, which are not always exact repeats. Equal entries are not always repeated. The list shows a part of the results, in another mix than the full data. Some tests of the compounds listed are not included; inactive here does not mean inactive elsewhere. Records with an inconclusive call do not appear. The source made the active and inactive calls. The call rests on the fitted dose curve; in most records, active means well fitted inhibition curve with a large enough effect; inconclusive means small, poorly fitted or top-dose-only effect, or another doubt; inactive means no such curve, though single readings can be large or run the other way.
Each molecule was assayed against DNA polymerase beta (Homo sapiens) (UniProt P06746) (assay: qHTS Assay for Inhibitors of DNA Polymerase Beta). Conditions: Pol beta primer extension/strand displacement, fluorescence kinetic; at 114 µM (top of the series).
Description: The base excision repair system in human cells is a target for therapeutic modulation of the response to irradiation treatment and DNA-damaging drugs. A key enzyme in this system is the bi-functional DNA polymerase known as DNA polymerase Beta (Pol Beta). The following is a homogeneous kinetic assay to study the primer extension and strand-displacement reaction catalyzed by pol beta.
A stepwise description of the 1536-well assay is shown in next Table. Three microliters of reagents (buffer in column 3 and 4 as negative control and 10 nM Pol beta in columns 1, 2, and 5-48) was dispensed into 1,536-well black solid-bottomed plate. Compounds (23 nL) were transferred via Kalypsys pin tool equipped with 1536-pin array (10 nL slotted pins, V&P Scientific, San Diego, CA). The plates were incubated for 15 min at room temperature, and 1 uL substrate (50 nM final concentration) were added to start the reaction and immediately read at 0 min read on Viewlux reader. The plate were further incubated for 10 min at room temperature, and then read on Viewlux again. Throughout the screen, reagent bottle and all liquid lines were chilled and made light-tight to minimize reagent degradation. All screening operations were performed on a fully integrated robotic system (Kalypsys, San Diego, CA) containing one RX-130 and two RX-90 anthropomorphic robotic arms (Staubli, Duncan, SC). Library plates were screened starting from the lowest and proceeding to the highest concentration, and a double-dipping step of the highest concentration was required to access higher concentrations of compounds. Vehicle-only plates, with DMSO being pin-transferred to the entire column 5-48 compound area, were inserted uniformly at the beginning and the end of each library in order to monitor for and record any shifts in the background, which can be affected by reagent dispensers or loss in enzyme activity overtime. Screening data were corrected, normalized, and concentration-effect relationships were derived by using publicly-available curve fitting algorithms developed in-house (http://ncgc.nih.gov/pub/openhts). A four parameter Hill equation was fitted to the concentration-response data by minimizing the residual error between the modeled and observed responses.
On the % scale 0 is the no-effect control and ±100 the full control effect.

| SMILES | activity change, negative = inhibition |
| --- | --- |
| CN(C)C1(CNC(=O)c2ccc(Br)cc2)CCCCC1 | inactive: -0.292% |
| COc1cc(C(=O)NCC2(N(C)C)CCCCC2)c([N+](=O)[O-])cc1OC | inactive: -3.67% |
| COc1ccc(Cl)cc1C(=O)NCC1(N(C)C)CCCCC1 | inactive: -14.3% |
| COc1cccc(C(=O)NCC2(N3CCCCC3)CCCCC2)c1 | inactive: 1.18% |
| COc1ccc(C(=O)NCC2(N(C)C)CCCCC2)cc1Cl | inactive: 15.3% |
| O=C(NCC1(N2CCCCC2)CCCCC1)c1cccc(Cl)c1 | inactive: 47.4% |
| COc1cccc(C(=O)NCC2(N3CCOCC3)CCCCC2)c1 | inactive: -17.8% |
| O=C(OC1CN2CCC1CC2)C(CO)(c1ccccc1)c1ccccc1 (centres undefined) | inactive: 0.555% |
| CC(C)COc1ccc(C(=O)NCC2(N(C)C)CCCCC2)cc1 | inactive: -10.9% |
| COc1ccc(Br)c(C(=O)NCC2(N3CCCCC3)CCCCC2)c1 | inactive: -0.277% |
| COc1cc(C(=O)NCC2(N(C)C)CCCCC2)cc(OC)c1OC | inactive: -27.6% |
| Cc1cccc(C(=O)NCC2(N(C)C)CCCCC2)c1 | inactive: -13.9% |
| CC(C)Oc1ccc(C(=O)NCC2(N(C)C)CCCCC2)cc1 | inactive: -19% and inactive: 10.7% |
| CN(C)c1cccc(C(=O)NCC2(N(C)C)CCCCC2)c1 | inactive: -7.09% |
| O=C(NCC1(N2CCCCC2)CCCCC1)c1cc([N+](=O)[O-])ccc1Cl | inactive: 2.66% |
| CN1[C@@H]2CC[C@H]1CC(OC(=O)C(O)(c1ccccc1)c1ccccc1)C2 (some centres undefined) | inactive: 13.3% |
| COc1cc(SC)ccc1C(=O)NCC1(N(C)C)CCCCC1 | inactive: -5.53% |

| SMILES | activity change, negative = inhibition |
| --- | --- |
| CN(C)C1(CNC(=O)c2cccc(Cl)c2)CCCCC1 | inactive: -18.1% |
| CCN(CC)CC(C)C(C)OC(=O)C(O)(c1ccccc1)c1ccccc1 (centres undefined) | inactive: 27.7% |
| CC(C)N1C(=O)CC2(CCN(CCOC(=O)C(O)(c3ccccc3)c3ccccc3)CC2)C1=O | inactive: 9.39% |
| Cc1ccc(C(=O)NCC2(N3CCCCC3)CCCCC2)cc1 | inactive: -1.13% |
| CN(C)C1(CNC(=O)c2ccccc2F)CCCCC1 | inactive: -0.33% |
| CN(C)C1CCCC1OC(=O)C(O)(c1ccccc1)c1ccccc1 (centres undefined) | inactive: -1.41% |
| CN(C)c1ccc(C(=O)NCC2(N(C)C)CCCCC2)cc1 | inactive: -20.2% |
| CN(C)C1(CNC(=O)c2ccccc2[N+](=O)[O-])CCCCC1 | inactive: 5.8% |
| Cc1ccccc1C(=O)NCC1(N2CCCCC2)CCCCC1 | inactive: 2.55% |
| CCCCOc1ccccc1C(=O)NCC1(N(C)C)CCCCC1 | inactive: 4.78% |
| O=C(NCC1(N2CCCCC2)CCCCC1)c1cc(F)c(F)cc1Cl | inactive: 16.1% |
| C=CCN1CCN(CCOC(=O)C(O)(c2ccccc2)c2ccccc2)CC1 | inactive: 0.656% |
| CCOc1cccc(C(=O)NCC2(N(C)C)CCCCC2)c1 | inactive: -27.1% |
| COc1ccc(C(=O)NCC2(N(C)C)CCCCC2)cc1 | inactive: 6.8% |
| O=C(NCC1(N2CCCCC2)CCCCC1)c1cccc(Br)c1 | inactive: 38.9% |
| Cc1cc(C(=O)NCC2(N3CCCCC3)CCCCC2)ccc1[N+](=O)[O-] | inactive: 17.9% |
| CCN1CCCC(OC(=O)C2(O)c3ccccc3C=Cc3ccccc32)C1 (centres undefined) | inactive: 25.6% |
